Data as given in patent US7517894B2, “VEGFR-2 and VEGFR-3 inhibitory anthranilamide pyridines” (Bayer Schering Pharma AG, priority 2003, dated 2009).

Sequences of proteins named here, by UniProt entry; tags and fusion partners are left off. Residues count along the entry.
UniProt P35968, 20-1356 limits assumed: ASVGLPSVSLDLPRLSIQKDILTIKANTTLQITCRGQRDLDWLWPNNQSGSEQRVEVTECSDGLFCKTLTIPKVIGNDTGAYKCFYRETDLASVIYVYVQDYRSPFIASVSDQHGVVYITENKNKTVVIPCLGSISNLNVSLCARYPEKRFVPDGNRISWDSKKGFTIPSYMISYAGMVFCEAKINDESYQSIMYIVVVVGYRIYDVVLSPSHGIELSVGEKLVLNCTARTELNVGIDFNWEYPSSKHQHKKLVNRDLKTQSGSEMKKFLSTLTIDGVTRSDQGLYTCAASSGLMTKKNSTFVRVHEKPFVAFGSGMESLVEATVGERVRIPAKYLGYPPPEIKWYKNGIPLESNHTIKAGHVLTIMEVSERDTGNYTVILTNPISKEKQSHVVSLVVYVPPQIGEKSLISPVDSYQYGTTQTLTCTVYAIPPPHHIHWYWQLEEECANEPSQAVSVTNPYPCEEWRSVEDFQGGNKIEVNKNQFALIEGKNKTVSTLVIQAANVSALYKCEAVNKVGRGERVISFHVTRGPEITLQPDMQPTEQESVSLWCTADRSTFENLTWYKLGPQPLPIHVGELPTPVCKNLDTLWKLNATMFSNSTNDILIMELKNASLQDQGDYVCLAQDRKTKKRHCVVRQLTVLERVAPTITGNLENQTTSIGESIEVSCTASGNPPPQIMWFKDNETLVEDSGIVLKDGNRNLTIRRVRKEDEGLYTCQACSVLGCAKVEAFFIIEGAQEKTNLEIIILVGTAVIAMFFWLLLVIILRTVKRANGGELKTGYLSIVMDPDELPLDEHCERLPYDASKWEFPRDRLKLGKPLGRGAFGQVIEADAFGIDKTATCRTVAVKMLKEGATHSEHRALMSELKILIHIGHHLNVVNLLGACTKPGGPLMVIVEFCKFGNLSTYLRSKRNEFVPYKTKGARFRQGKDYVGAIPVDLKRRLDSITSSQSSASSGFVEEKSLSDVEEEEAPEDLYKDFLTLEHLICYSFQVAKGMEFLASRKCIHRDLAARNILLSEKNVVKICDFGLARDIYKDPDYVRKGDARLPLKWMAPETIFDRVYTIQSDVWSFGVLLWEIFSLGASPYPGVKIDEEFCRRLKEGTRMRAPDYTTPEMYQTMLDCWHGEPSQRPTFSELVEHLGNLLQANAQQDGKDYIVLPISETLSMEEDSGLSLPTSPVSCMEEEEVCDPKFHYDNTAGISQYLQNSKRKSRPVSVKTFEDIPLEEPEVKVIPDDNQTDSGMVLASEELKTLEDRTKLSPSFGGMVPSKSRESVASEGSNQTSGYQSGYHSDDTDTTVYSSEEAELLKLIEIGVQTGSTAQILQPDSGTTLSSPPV
UniProt P08684, whole entry: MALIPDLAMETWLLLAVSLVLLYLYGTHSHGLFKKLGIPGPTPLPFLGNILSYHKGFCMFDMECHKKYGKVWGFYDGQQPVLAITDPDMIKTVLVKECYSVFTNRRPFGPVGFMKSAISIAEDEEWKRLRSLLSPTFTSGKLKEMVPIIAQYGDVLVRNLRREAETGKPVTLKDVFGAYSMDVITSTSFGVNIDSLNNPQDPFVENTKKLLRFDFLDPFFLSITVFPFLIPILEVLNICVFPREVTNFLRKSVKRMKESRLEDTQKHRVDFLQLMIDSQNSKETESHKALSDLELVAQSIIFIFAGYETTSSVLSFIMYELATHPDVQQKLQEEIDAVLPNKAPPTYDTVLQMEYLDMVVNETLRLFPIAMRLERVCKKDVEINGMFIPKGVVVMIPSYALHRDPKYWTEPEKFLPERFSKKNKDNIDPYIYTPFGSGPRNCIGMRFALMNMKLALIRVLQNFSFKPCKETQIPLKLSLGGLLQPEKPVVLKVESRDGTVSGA

Experiments:
[1] = target: VEGFR II (KDR) (Homo sapiens, UniProt P35968); assay: Inhibition of the KDR kinase activity (33P-ATP, poly-(Glu4Tyr) phosphocellulose filter assay); settings: read-out: VEGFR II (KDR) kinase inhibition IC50; 10 minutes at room temperature; phosphate incorporation into poly-(Glu4Tyr)
Description: • Stock solution A: 3 mmol of ATP in water, pH 7.0 (−70° C.) • Stock solution B: g-33P-ATP 1 mCi/100 μl • Stock solution C: poly-(Glu4Tyr) 10 mg/ml in water Solution for Dilutions • Substrate solvent: 10 mmol of DTT, 10 mmol of manganese chloride, 100 mmol of magnesium chloride • Enzyme solution: 120 mmol of tris/HCl, pH 7.5, 10 μM of sodium vanadium oxide Sample Application 1
In a microtiter plate (without protein binding) that tapers to a point, 10 μl of substrate mix (10 μl of volume of ATP stock solution A+25 μCi of g-33P-ATP (about 2.5 μl of stock solution B)+30 μl of poly-(Glu4Tyr) stock solution C+1.21 ml of substrate solvent), 10 μl of inhibitor solution (substances corresponding to the dilutions, 3% DMSO in substrate solvent as a control) and 10 μl of enzyme solution (11.25 μg of enzyme stock solution (KDR or FLT-1 kinase) are added at 4° C. in 1.25 ml of enzyme solution (dilute). It is thoroughly mixed and incubated for 10 minutes at room temperature. Then, 10 μl of stop solution (250 mmol of EDTA, pH 7.0) is added, mixed, and 10 μl of the solution is transferred to a P 81 phosphocellulose filter. Then, it is washed several times in 0.1 M phosphoric acid. The filter paper is dried, coated with Meltilex and measured in a microbeta counter.
The IC50 values are determined from the inhibitor concentration, which is necessary to inhibit the phosphate incorporation to 50% of the uninhibited incorporation after removal of the blank reading (EDTA-stopped reaction).

[2] = target: human cytochrome P 450 isoenzyme (3A4) (Homo sapiens, UniProt P08684); assay: Cytochrome P450 inhibition (Crespi et al.); settings: read-out: Cytochrome P450 Isoenzyme 3A4 inhibition; baculovirus/insect cell-expressed human isoenzyme 3A4
Description: The cytochrome P450 inhibition was performed according to the publication of Crespi et al. (Anal. Biochem., 248, 188-190 (1997)) with use of baculovirus/insect cell-expressed, human cytochrome P 450 isoenzyme (3A4).

CC(=O)Nc1cc(CNc2ccccc2C(=O)Nc2cc3ccccc3cn2)ccn1
IC50 [1]: 41 nM
IC50 [2]: > 30 µM

O=C(Nc1cc2ccccc2cn1)c1ccccc1NCc1ccncc1
IC50 [1]: 5 nM

CCOC(=O)Nc1cc(CNc2ccccc2C(=O)Nc2ccc3[nH]ncc3c2)ccn1
IC50 [1]: 8 nM
IC50 [2]: 10 µM
